The values below are quoted from earlier work in publication PMC11505911, “Design and Synthesis of Small Molecule Probes of MDA-9/Syntenin” (Biomolecules, 2024).

Each structure is given as a SMILES string.

In the data set the target is T1, MDA-9/Syntenin (Homo sapiens, UniProt O00560).
T1 construct: made in house
T1 sequence (O00560 1-298): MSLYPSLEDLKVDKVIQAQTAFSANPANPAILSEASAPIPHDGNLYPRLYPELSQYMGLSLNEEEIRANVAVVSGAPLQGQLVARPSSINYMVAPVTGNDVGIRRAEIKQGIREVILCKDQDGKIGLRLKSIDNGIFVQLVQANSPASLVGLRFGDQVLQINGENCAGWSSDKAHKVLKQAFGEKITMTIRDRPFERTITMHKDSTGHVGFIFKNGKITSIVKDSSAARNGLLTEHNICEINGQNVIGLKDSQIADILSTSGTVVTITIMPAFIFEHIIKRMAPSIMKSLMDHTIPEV
Also on record: method as in printed. The following applies: pre-PDZ1i molecules studied en route to the discovery of PDZ1i; ref not given; cited from earlier work.

In the case of `O=C(Nc1cc(Cl)c(O)c(Cl)c1)c1nc2[nH]c3c(c(=O)n2n1)CCC3` [112F11], the IC50 (in general, the concentration at which inhibition is half-maximal) is 71.8 µM.
